The source made the active and inactive calls. No cut-off for these calls is given here.
Key:
HeLa = assay: Cytotoxicity against human HeLa cells assessed as effect on cell viability up to 167 uM by Zombie-violet staining based assay; format: ADME
[1] = biological target: Endoplasmic reticulum aminopeptidase 1 (Homo sapiens) (UniProt Q9NZ08); details: 5 to 15 uM

Chains of the proteins cited; added tags and fusions are not shown. Lines headed by an entry give the natural chain unless they say otherwise; changes in a name come on top.
UniProt Q9NZ08: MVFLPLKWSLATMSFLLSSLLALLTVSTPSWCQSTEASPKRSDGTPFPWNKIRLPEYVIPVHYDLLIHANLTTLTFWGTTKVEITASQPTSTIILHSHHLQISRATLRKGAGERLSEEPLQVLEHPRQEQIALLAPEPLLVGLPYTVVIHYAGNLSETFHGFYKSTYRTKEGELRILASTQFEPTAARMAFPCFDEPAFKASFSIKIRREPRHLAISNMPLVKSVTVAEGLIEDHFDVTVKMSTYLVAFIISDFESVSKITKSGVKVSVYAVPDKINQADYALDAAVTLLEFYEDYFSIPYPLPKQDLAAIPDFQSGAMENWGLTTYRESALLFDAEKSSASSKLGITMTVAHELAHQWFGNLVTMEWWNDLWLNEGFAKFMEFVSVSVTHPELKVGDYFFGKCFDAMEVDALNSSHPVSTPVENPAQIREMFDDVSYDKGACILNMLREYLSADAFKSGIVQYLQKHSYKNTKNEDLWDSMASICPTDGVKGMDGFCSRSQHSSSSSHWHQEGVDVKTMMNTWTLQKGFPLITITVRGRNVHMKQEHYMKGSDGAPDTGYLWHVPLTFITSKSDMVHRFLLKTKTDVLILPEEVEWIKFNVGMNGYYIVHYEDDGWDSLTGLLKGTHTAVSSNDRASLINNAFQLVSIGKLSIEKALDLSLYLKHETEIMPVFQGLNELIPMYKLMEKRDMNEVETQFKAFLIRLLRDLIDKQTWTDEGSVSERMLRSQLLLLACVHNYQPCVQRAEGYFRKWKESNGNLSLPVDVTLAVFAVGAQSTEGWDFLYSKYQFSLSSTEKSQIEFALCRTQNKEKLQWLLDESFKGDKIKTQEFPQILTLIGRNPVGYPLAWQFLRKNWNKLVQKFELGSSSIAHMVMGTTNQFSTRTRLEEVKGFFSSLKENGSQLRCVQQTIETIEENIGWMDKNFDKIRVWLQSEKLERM

inhibition [1]: Active
SMILES: C[C@@H]1C[C@H](O)[C@@]2(C)C(C(=O)O)=CCC[C@@H]2[C@@]1(C)CCc1ccoc1.N
Activity (HeLa): Non-Toxic

Reference: ChEMBL document CHEMBL4354860, “Targeting the Regulatory Site of ER Aminopeptidase 1 Leads to the Discovery of a Natural Product Modulator of Antigen Presentation” (J Med Chem, 2020)
